From PubChem BioAssay AID748 (Sanford-Burnham Center for Chemical Genomics, 2007)
This is a selection; strong and weak results do not stand in their true shares. Entries with a potency or affinity are not part of this list. Some results for these compounds are left out of this collection, so the calls shown say nothing about other tests. Calls of active or inactive are those of the source.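 The calls were made as follows: active = displacement above 50% at 20 µM plus a fluorescence interference ratio under 1.5; inactive = the rest.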

The compounds below were run against Bcl-2-like protein 10 (Homo sapiens) (UniProt Q9HD36) (assay: Bcl-B/TR3 peptide binding disruption – biochemical, fluorescence polarization, FITC-TR3 peptide, selectivity assay for Bfl-1 inhibitor project, primary screen (AID 748;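 also: plate controls were wells without compound for no effect and wells lacking Bcl-B protein for full effect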)). Details: FP displacement of FITC-TR3 peptide from Bcl-B; at 20 µM; hits give high values.

Structure (SMILES)	displacement
O=C(OC1CN2CCC1CC2)C(CO)(c1ccccc1)c1ccccc1 (stereo not drawn)	inactive: -2.3%
CN(C)c1cccc(C(=O)NCC2(N(C)C)CCCCC2)c1	inactive: -3%
CC(C)N1C(=O)CC2(CCN(CCOC(=O)C(O)(c3ccccc3)c3ccccc3)CC2)C1=O	inactive: 5%
